In patent publication US20080194701A1, “Bifunctional Enzyme with Y-Glutamylcysteine Synthetase and Glutathione Synthetase Activity and Uses Thereof” (priority 2004, published 2008):

System: NCC(=O)O
Test: purified protein, by the assay type
Conditions: other: substrate Km, GS activity

E. faecalis γ-GCS-GS (Enterococcus faecalis V583)
Km: 5.0 ± 0.5 mM
